Compound activity: PubChem BioAssay, Broad Institute
Rows were chosen to be rich in hits. Some 1% of all compounds tested hit in one or more screens of this group.
CDK5 inh – inhibitors of human CDK5/p35 kinase, primary screen, biochemical, single concentration. 330,000 compounds, 0.01% hits. Recombinant CDK5/p35, ADP-Glo luminescence, 60 min. inhibition, % at 10 µM. Cyclin-dependent kinase 5 (Homo sapiens) + Cyclin-dependent kinase 5 activator 1 (Homo …;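 active means highest replicate inhibition of at least 50% and at least 75% of replicates reaching 50%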
Rtt109 HAT inh – inhibitors of C. albicans Rtt109/Vps75 HAT, primary screen, biochemical, ThioGlo CoA-SH fluorescence, plate reader | 330,000 compounds, 0.16% hits | AID 540336, 2011 | purified Rtt109/Vps75, 4 h | inhibition, % at 34.9 µM;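 active means inhibition of at least 50% in every replicate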
Cneo AK release – Cryptococcus neoformans cell lysis inducers, primary screen, AK release luminescence, single concentration. C. neoformans lysis, adenylate kinase release luminescence, 4 h; normalised: neutral wells 0, clomiphene wells 100. lysis activity, % at 15 µM. 360,000 compounds, 0.2% hits. AID 651654, 2012;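 active means mean lysis activity across replicates of at least 80%, whatever share of replicates individually reach that level; inactive means mean lysis activity below 80%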
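Material – log-phase Cryptococcus neoformans yeast cells · Input – 5 × 10^6 yeast cells/mL · Medium – fresh YPD growth medium · Doses – single compound concentration per well · Timing – static 4 h at 37 °C with compound, 1 h detection · Detection – adenylate kinase release luminescence · Read-out – signal increase indicating cell lysis · Control set – Clomiphene as positive lysis control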
UUG fidelity – modulators of yeast start codon fidelity, primary screen, whole organism, S. cerevisiae, single point, plate reader | AID 602363, 2012 | actives 0.13% (n = 350,000) | activity score, % at 18.7 µM | S. cerevisiae UUG-firefly luciferase reporter, luminescence/redox ratio;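 active means replicate mean at a twofold rise or more, about +100% in these data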;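 further: firefly luciferase made from a UUG start codon reports start codon fidelity; reporter light over untreated wells divided by growth signal over untreated wells; some hits fall short of that in this replicate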
C2C12 statin – suppressors of statin myotoxicity in C2C12 myotubes, primary screen, cell-based, single point, plate reader. AID 602340, 2012. 330,000 compounds, 0.78% hits. C2C12 myotubes + simvastatin, ATP luminescence, 48 h; scaled: DMSO 0, geranylgeraniol control 100. rescue of ATP level, % at 7.49 µM;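 active means mean ATP rescue above about 67%, or every replicate alone reaching that limit, limit read from the data, passing the limit was not always enough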;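 further: myotubes were challenged with 10 µM simvastatin during compound exposure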
A number is an active result; - = inactive; . = no result given.

SMILES	CDK5 inh	Rtt109 HAT inh	Cneo AK release	UUG fidelity	C2C12 statin
CCCNS(=O)(=O)c1ccc(CCC(=O)NCc2ccc3c(c2)OCO3)cc1	-	-	-	-	.
CCCNC(=O)CC(NS(=O)(=O)c1ccc(OC)cc1)c1ccco1 (configuration not stated)	-	-	.	.	.
O=C(CCNS(=O)(=O)c1ccc(Br)cc1)NCc1ccc2c(c1)OCO2	-	-	-	-	152
COc1ccc(S(=O)(=O)NC(CC(=O)NCc2ccc3c(c2)OCO3)c2ccco2)cc1 (configuration not stated)	-	-	-	-	117
CCN(CC)C(=O)CN(c1ccc2c(c1)OCO2)S(C)(=O)=O	-	-	-	-	-
CCN(CC)C(=O)CN(c1ccc(F)c(Cl)c1)S(C)(=O)=O	-	-	-	-	70
COc1cccc(C(=O)N2C[C@H]3[C@@H](c4ccccc42)[C@@H](CO)N3Cc2cccnc2)c1	.	.	-	-	-
C[C@@H]1CN([C@@H](C)CO)C(=O)c2cc(C#Cc3ccccn3)cnc2O[C@H]1CN(C)Cc1ccccc1	.	.	.	-	-
COc1ccc(C2C(C(C)=O)=C(O)C(=O)N2c2ccc(Br)cn2)cc1 (configuration not stated)	-	-	-	-	136
C[C@H](CO)N1C[C@H](C)[C@H](CN(C)C(=O)Cc2ccccc2)Oc2ncc(-c3cncnc3)cc2C1=O	.	.	-	-	-
CC(C)NC(=O)Nc1cccc2c1O[C@H](CN(C)C)[C@H](C)CN([C@@H](C)CO)C2=O	.	.	92	.	-
CC(C)NC(=O)N(C)C[C@H]1Oc2c(NC(=O)C3CCCCC3)cccc2C(=O)N([C@H](C)CO)C[C@H]1C	.	.	114	-	-
CC(C)NC(=O)N(C)C[C@@H]1Oc2c(NC(=O)C3CCCCC3)cccc2C(=O)N([C@@H](C)CO)C[C@@H]1C	.	.	84	-	-
C[C@H](CO)N1C[C@H](C)[C@H](CN(C)S(=O)(=O)c2cn(C)cn2)Oc2ccc(NS(=O)(=O)c3cn(C)cn3)cc2C1=O	.	.	.	.	-
O=C(NC1CCC1)[C@H]1[C@H](CO)[C@H]2Cn3c(ccc(-c4ccncc4)c3=O)[C@@H]1N2CC1CC1	.	.	-	.	-
Cc1ccc(S(=O)(=O)N(CC(=O)NCc2ccco2)Cc2ccccc2F)cc1	-	-	-	-	67
C=CCNC(=O)C(=O)c1cccn1-c1ccsc1C(=O)OC	-	-	-	-	-
C=CCNC(=O)c1cccn1-c1ccsc1C(=O)OC	-	-	-	-	91
CCNc1nc(NCC)nc(Nn2cnnc2)n1	-	-	-	-	99
CCNc1nc(NC(C)(C)C)nc(N(CC)n2cnnc2)n1	-	-	-	-	-
Clc1cncc(Cl)c1N/N=C/c1ccncc1	52	-	-	-	-
Clc1cccc(Cl)c1/C=N/Nc1c(Cl)cncc1Cl	-	-	.	.	.
O=C(CSc1nnnn1-c1ccccc1)NC(=O)NCc1ccco1	-	-	-	-	95
CCOc1ccccc1-n1nnnc1SCC(=O)NC(=O)NCc1ccco1	-	-	-	-	-
COCCCNC(=O)c1cccn2c(=O)c3cc4ccccc4cc3nc12	-	-	-	-	182
SMILES	CDK5 inh	Rtt109 HAT inh	Cneo AK release	UUG fidelity	C2C12 statin
COc1ccccc1N(CC(=O)N1CCCCCC1)S(=O)(=O)c1ccc(C)cc1	-	-	-	-	91
Cc1ccc(C2OC(=O)c3ccccc32)cc1 (configuration not stated)	-	-	-	-	133
COc1ccc(S(=O)(=O)N(C)C)cc1NC(=O)Cc1ccc(S(=O)(=O)N2CCOCC2)s1	-	51	-	-	-
C[C@@H]1CN([C@H](C)CO)C(=O)c2ccccc2-c2ccccc2CO[C@H]1CN(C)C(=O)[C@H](C)c1ccccc1	.	.	-	.	.
Cc1noc(C)c1S(=O)(=O)N(C)C[C@H]1Oc2c(cccc2N(C)C)C(=O)N([C@@H](C)CO)C[C@@H]1C	.	.	-	-	-
CCCCn1c(CCc2ccccc2)nc2cc3[nH]c(=O)c(C(C)C)nc3cc21	-	-	-	-	119
O=S(=O)(NN=C1CCCCC1)c1ccccc1	-	-	-	-	115
COc1cccc(C(=O)NNC(=O)CCC(=O)O)c1	-	54	.	.	.
CCCC(=O)Nc1ccc2c(c1)OC[C@H](C)N(CCC(F)(F)F)C[C@@H](C)[C@@H](OC)CN(C)C2=O	.	.	-	-	-
Nc1nc(NCc2c(F)cccc2Cl)nn1-c1ccccc1	-	-	-	-	101
CCn1ncc(N(C)N)c(Cl)c1=O	-	-	-	-	89
CCn1ncc(N2CCOCC2)c(Cl)c1=O	-	-	-	-	-
C[C@@H]1CN([C@@H](C)CO)C(=O)c2ccccc2-c2ccccc2CO[C@@H]1CN(C)C(=O)c1ccccc1	.	.	-	-	-
C=C(C)Cn1c(=S)[nH]c2ccccc2c1=O	-	-	-	-	144
CC1CCCCC1Nc1nc2ccc(Cl)cc2n2cnnc12 (configuration not stated)	-	-	-	-	98
Cc1nn(C)cc1[C@@H]1C[C@H]2CN(Cc3cccc(Cl)c3)C(=O)[C@]23CCCN13	-	53	.	.	.
Cn1cc([C@@H]2C[C@H]3CN(Cc4cccc(Cl)c4)C(=O)[C@]34CCCN24)c(-c2ccccc2)n1	-	-	-	-	-
C=CCOC(=O)c1ccc(-n2cncn2)nc1	-	-	-	-	134
C=CCOC(=O)c1ccc(-n2cnc(C)n2)nc1	-	-	.	.	.
COc1ccc(CCNS(=O)(=O)c2cccs2)cc1	-	-	-	-	128
O=S(=O)(NCCc1ccccc1)c1cccs1	-	-	-	-	-
COc1ccc(NC(=O)CNS(=O)(=O)c2cccs2)c(OC)c1	-	63	-	-	-
O=C(Nc1ccccc1C(=O)NCCCn1ccnc1)c1ccccc1	-	-	-	-	122
C[C@H](CO)N1C[C@H](C)[C@H](CN(C)C(=O)Nc2ccccc2)Oc2ccc(NC(=O)Nc3ccccc3)cc2CC1=O	.	.	-	-	-
Cc1noc(C)c1NC(=O)N(C)C[C@@H]1Oc2ccc(NC(=O)C3CC3)cc2CC(=O)N([C@H](C)CO)C[C@@H]1C	.	.	107	-	-
CC(C)NC(=O)Nc1ccc2c(c1)CC(=O)N([C@@H](C)CO)C[C@@H](C)[C@H](CN(C)C(=O)Nc1ccc3c(c1)OCO3)O2	.	.	85	-	-
Cc1noc(C)c1NC(=O)N(C)C[C@@H]1Oc2ccc(NC(=O)NC(C)C)cc2CC(=O)N([C@H](C)CO)C[C@H]1C	.	.	102	-	-
Cc1noc(C)c1NC(=O)N(C)C[C@@H]1Oc2ccc(NC(=O)NC(C)C)cc2CC(=O)N([C@@H](C)CO)C[C@@H]1C	.	.	106	-	-
